The test concerns the target human ACC2 (Homo sapiens, UniProt O00763). Briefly: ACC2 assay, spectrophotometric 384 well assay (NADH-linked, coupled lactate dehydrogenase/pyruvate kinase). As to conditions: hACC2 construct lacking the 128 N-terminal amino acids; 25° C., 340 nm, 15 minutes. Here is the method:
Spectrophotometric 384 Well Assay
Malonyl CoA formation by acetyl CoA carboxylases is stoichometrically linked to the consumption of ATP. ACC2 activity is measured in a NADH-linked kinetic method measuring ADP generated during the ACC reaction using a coupled lactate dehydrogenase/pyruvate kinase reaction.
For biological testing, a human ACC2 construct which lacks the 128 amino acids at the N-terminus for increased solubility (nt 385-6966 in Genbank entry AJ575592) is cloned. The protein is then expressed in insect cells using a baculoviral expression system. Protein purification is performed by anion exchange.
All compounds are dissolved in dimethyl sulfoxide (DMSO) to a concentration of 10 mM.
Assay reactions are then carried out in 384-well plates, with hACC2 in an appropriate dilution and at final assay concentrations (f.c.) of 100 mM Tris (pH 7.5), 10 mM trisodium citrate, 25 mM KHCO3, 10 mM MgCl2, 0.5 mg/mL BSA, 3.75 mM reduced L-glutathione, 15 U/mL lactate dehydrogenase, 0.5 mM phosphoenolpyruvate, 15 U/mL pyruvate kinase, compounds at different concentrations at final DMSO concentrations of 1%.
The enzymatic reaction is then started by addition of a mixture of NADH, acetyl Coenzyme A (both 200 μM f.c.) and ATP (500 uM f.c.). The decrease of the optical density (slope S) is then determined at 25° C. at a wavelength of 340 nm over 15 minutes in a spectrophotometric reader.
Each assay microtiter plate contains wells with vehicle instead of compound as controls for the non-inhibited enzyme (100% CTL; ‘HIGH’) and wells without acetyl-CoA as controls for non-specific NADH degradation (0% CTL; ‘LOW’). The slope S is used for calculation of % CTL=(S(compound)−S(‘LOW’))/(S(‘HIGH’)—S(‘LOW’))*100. Compounds will give values between 100% CTL (no inhibition) and 0% CTL (complete inhibition).
For IC50 value determination, the sample slope in the presence of the test compound after subtraction of the low controls (S(compound)−S(‘LOW’)) are used. […]

Chains of the proteins cited; added tags and fusions are not shown. Residues count along the entry.
UniProt O00763, 129-2458 limits assumed: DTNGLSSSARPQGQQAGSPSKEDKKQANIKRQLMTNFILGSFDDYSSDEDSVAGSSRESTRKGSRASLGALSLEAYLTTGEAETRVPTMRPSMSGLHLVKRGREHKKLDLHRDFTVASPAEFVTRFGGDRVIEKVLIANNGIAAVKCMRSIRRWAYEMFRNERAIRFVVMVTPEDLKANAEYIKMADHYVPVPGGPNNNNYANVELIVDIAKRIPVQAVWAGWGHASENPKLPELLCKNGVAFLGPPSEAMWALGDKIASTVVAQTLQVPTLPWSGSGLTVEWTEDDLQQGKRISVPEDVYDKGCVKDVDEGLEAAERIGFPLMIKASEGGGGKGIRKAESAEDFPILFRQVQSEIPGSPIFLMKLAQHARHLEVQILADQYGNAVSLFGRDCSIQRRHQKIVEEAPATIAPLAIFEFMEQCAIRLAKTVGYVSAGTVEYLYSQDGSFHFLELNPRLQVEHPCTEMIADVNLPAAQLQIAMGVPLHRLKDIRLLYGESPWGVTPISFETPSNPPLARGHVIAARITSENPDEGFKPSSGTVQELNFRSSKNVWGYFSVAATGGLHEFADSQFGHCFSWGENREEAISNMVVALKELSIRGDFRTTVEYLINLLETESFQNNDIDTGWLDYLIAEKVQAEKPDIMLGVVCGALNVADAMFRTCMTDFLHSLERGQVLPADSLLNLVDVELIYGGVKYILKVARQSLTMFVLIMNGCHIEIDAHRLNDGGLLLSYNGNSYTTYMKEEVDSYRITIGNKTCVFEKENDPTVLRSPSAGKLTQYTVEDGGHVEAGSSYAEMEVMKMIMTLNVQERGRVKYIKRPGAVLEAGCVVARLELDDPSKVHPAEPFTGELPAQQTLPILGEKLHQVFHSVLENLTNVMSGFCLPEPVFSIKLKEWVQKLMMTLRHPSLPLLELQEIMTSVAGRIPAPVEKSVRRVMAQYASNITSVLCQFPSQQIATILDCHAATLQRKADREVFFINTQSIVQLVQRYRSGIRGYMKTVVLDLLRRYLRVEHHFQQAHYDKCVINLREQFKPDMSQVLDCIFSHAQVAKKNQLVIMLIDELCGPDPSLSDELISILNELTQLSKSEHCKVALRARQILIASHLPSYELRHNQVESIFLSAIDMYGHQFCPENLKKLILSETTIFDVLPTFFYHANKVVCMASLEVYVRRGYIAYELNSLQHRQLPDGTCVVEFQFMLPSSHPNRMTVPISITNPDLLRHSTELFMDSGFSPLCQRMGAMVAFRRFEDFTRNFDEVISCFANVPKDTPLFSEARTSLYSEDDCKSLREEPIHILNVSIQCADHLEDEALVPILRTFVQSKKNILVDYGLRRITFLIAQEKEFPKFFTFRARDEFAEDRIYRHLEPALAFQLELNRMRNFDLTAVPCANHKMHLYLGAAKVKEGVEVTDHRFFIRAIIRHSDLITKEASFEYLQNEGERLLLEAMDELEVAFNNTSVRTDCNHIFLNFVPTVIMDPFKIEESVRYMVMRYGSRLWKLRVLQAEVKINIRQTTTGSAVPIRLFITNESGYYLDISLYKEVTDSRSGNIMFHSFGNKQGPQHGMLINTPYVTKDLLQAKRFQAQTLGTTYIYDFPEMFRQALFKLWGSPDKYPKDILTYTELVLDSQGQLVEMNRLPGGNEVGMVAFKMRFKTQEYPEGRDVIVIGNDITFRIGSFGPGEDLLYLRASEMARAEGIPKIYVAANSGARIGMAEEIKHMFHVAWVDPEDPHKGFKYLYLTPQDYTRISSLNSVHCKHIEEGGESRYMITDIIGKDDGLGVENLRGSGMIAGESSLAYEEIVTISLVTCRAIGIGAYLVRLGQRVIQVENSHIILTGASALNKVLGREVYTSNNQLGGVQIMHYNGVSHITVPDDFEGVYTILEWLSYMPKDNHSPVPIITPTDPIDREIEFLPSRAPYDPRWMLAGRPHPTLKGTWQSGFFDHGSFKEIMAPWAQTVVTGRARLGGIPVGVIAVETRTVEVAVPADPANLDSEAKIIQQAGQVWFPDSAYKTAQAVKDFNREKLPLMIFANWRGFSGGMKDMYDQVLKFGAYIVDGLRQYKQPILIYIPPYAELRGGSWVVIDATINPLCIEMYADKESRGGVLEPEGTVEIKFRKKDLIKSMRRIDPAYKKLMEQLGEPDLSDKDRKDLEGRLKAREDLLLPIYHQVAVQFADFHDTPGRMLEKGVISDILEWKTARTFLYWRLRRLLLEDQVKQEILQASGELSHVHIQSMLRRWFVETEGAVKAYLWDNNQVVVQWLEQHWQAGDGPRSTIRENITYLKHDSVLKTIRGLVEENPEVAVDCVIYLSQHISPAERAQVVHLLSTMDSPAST

Each structure is given as a SMILES string.

`CCNC(=O)C(C)c1ccc(C#Cc2ccc(OCc3ccoc3)cc2)cc1` (stereo not drawn) came in with an IC50 of 80 nM.
`CCNC(=O)C(C)c1ccc(C#Cc2ccc(Oc3ccccc3)nc2)cc1` (stereo not drawn) displayed an IC50 of 620 nM.
In the case of `CCNC(=O)C(C)Cc1ccc(C#Cc2ccc(OCC)cc2)cc1` (stereo not drawn), the IC50 came out at 870 nM.

Source of the values: patent US8877754B2, “Compounds, pharmaceutical compositions and uses thereof” (Boehringer Ingelheim International GmbH, priority 2010, dated 2014).
